This note sets out measurements from the Kinase Knowledgebase extract (Sharma et al. 2016).

Chains of the proteins cited; added tags and fusions are not shown. Lines headed by an entry give the natural chain unless they say otherwise; changes in a name come on top.
UniProt P42338: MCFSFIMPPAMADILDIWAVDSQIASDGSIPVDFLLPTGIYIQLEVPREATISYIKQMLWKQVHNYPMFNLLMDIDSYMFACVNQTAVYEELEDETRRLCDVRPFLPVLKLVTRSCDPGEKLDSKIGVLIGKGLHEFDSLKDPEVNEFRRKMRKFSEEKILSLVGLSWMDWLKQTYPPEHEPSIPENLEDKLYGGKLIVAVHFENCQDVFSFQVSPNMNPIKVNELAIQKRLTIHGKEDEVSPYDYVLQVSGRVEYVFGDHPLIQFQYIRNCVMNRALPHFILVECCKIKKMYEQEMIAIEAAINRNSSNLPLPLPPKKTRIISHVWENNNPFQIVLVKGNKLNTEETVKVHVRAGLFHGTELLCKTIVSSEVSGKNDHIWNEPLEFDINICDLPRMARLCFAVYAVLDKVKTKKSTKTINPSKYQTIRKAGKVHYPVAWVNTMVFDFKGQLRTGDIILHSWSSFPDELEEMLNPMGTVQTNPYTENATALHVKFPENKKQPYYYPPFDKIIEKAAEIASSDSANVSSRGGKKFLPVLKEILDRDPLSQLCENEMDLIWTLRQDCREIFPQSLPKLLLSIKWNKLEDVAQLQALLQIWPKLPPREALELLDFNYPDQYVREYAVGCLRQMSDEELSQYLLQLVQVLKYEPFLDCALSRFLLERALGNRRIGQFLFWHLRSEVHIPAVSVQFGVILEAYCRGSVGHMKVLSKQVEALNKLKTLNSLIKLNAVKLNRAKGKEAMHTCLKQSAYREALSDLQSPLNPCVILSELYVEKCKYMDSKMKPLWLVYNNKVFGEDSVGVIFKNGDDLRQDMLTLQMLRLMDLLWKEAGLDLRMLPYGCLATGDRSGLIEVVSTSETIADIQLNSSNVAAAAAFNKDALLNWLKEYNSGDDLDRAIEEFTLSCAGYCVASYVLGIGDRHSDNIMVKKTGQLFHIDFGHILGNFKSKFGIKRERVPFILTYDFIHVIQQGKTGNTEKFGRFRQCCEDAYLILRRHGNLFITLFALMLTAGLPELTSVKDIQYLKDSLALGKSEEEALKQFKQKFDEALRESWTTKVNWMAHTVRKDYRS

Molecules are shown by their SMILES.

This assay addresses PIK3CB (Human) (UniProt P42338).

Turning to `CC(C)n1nc(-c2cc(F)c3cn[nH]c3c2)c2c(N)ncnc21`, the IC50 was below 1000 nM.

One may read the IC50 as the concentration at which inhibition is half-maximal.
